According to paper PMC8899575:

Target: Ube2T (UniProt Q9NPD8)
Assay: co-IP with anti-GFP, immunoblot
Conditions: reference: wild-type GFP-RACK1, with or without TNF-α; sites S110

binding against the reference: weaker
Substance: RACK1 (from UniProt P68040) S110A GFP-RACK1
